Membrane permeability of cyclic peptides

Source: CycPeptMPDB (Li et al. 2023), which took these values from Townsend et al. 2020, doi:10.26434/chemrxiv.13335941.v1.

PAMPA measures passive passage through an artificial lipid membrane.
Values are log10 P with P in cm/s, so -5 is more permeable than -7.

{"smiles": "CC(C)C[C@H]1C(=O)N(C)[C@@H](CC(C)C)C(=O)N2CCC[C@@H]2C(=O)N(Cc2ccccc2)CC(=O)N[C@@H](Cc2ccccc2)C(=O)N2CCC[C@@H]2C(=O)N[C@@H](Cc2ccccc2)CC(=O)N1C", "PAMPA (log10 cm/s)": "-5.14"}
{"smiles": "CC(C)C[C@H]1C(=O)N2CCC[C@@H]2C(=O)N(Cc2ccccc2)CC(=O)N[C@@H](Cc2ccccc2)C(=O)N2CCC[C@@H]2C(=O)N[C@@H](C)C(=O)N(Cc2ccccc2)CC(=O)N1C", "PAMPA (log10 cm/s)": "-5.96"}
{"smiles": "CC(C)C[C@H]1NC(=O)[C@@H]2CCCN2C(=O)[C@@H](CC(C)C)NC(=O)CN(Cc2ccccc2)C(=O)C[C@H](Cc2ccccc2)NC(=O)[C@H](Cc2ccccc2)NC1=O", "PAMPA (log10 cm/s)": "-5.94"}
{"smiles": "CCCN1CC(=O)N(Cc2ccccc2)CC(=O)N[C@H](CC(C)C)C(=O)N2CCC[C@H]2C(=O)N[C@H](CC(C)C)C(=O)N[C@@H](Cc2ccccc2)C1=O", "PAMPA (log10 cm/s)": "-5.45"}
{"smiles": "CC(C)C[C@H]1C(=O)N[C@@H](Cc2ccccc2)C(=O)N2CCC[C@@H]2C(=O)N(C)[C@H](C)C(=O)N(Cc2ccccc2)CC(=O)N(Cc2ccccc2)CC(=O)N2CCC[C@@H]2C(=O)N1C", "PAMPA (log10 cm/s)": "-6.41"}
{"smiles": "CC(C)C[C@@H]1C(=O)N[C@@H](Cc2ccccc2)CC(=O)N2CCC[C@H]2C(=O)N(Cc2ccccc2)CC(=O)N[C@@H](Cc2ccccc2)C(=O)N[C@@H](Cc2ccccc2)CC(=O)N1C", "PAMPA (log10 cm/s)": "-5.56"}
{"smiles": "CC(C)C[C@@H]1C(=O)N(C)[C@H](CC(C)C)C(=O)N2CCC[C@H]2C(=O)N(Cc2ccccc2)CC(=O)N[C@@H](Cc2ccccc2)C(=O)N2CCC[C@@H]2C(=O)N[C@@H](Cc2ccccc2)CC(=O)N1C", "PAMPA (log10 cm/s)": "-5.51"}
{"smiles": "CC(C)C[C@@H]1C(=O)N[C@@H](Cc2ccccc2)CC(=O)N2CCC[C@H]2C(=O)N(C)[C@@H](CC(C)C)C(=O)N[C@@H](Cc2ccccc2)C(=O)N[C@@H](Cc2ccccc2)CC(=O)N1C", "PAMPA (log10 cm/s)": "-5.41"}
{"smiles": "CC(C)C[C@H]1NC(=O)[C@H]2CCCN2C(=O)C[C@H](Cc2ccccc2)NC(=O)CN(Cc2ccccc2)C(=O)[C@H](C)N(C)C(=O)[C@H](Cc2ccccc2)NC1=O", "PAMPA (log10 cm/s)": "-5.90"}
{"smiles": "CCCN1CC(=O)N(Cc2ccccc2)CC(=O)N(Cc2ccccc2)CC(=O)N2CCC[C@H]2C(=O)N(Cc2ccccc2)CC(=O)N[C@@H](Cc2ccccc2)C(=O)N2CCC[C@H]2C1=O", "PAMPA (log10 cm/s)": "-5.78"}
{"smiles": "CC(C)C[C@@H]1C(=O)N(C)[C@@H](CC(C)C)C(=O)N2CCC[C@H]2C(=O)N[C@H](CC(C)C)C(=O)N[C@@H](Cc2ccccc2)C(=O)N[C@@H](Cc2ccccc2)CC(=O)N1C", "PAMPA (log10 cm/s)": "-5.21"}
{"smiles": "CC(C)C[C@@H]1C(=O)N[C@@H](Cc2ccccc2)CC(=O)N2CCC[C@@H]2C(=O)N(Cc2ccccc2)CC(=O)N[C@@H](Cc2ccccc2)C(=O)N2CCC[C@@H]2C(=O)N[C@@H](Cc2ccccc2)CC(=O)N1C", "PAMPA (log10 cm/s)": "-5.79"}
{"smiles": "CC(C)C[C@@H]1C(=O)N2CCC[C@@H]2C(=O)N(C)[C@H](CC(C)C)C(=O)N[C@@H](Cc2ccccc2)C(=O)N[C@@H](Cc2ccccc2)CC(=O)N(Cc2ccccc2)CC(=O)N1C", "PAMPA (log10 cm/s)": "-5.26"}
{"smiles": "CC(C)C[C@@H]1C(=O)N2CCC[C@@H]2C(=O)N(Cc2ccccc2)CC(=O)N[C@@H](Cc2ccccc2)C(=O)N2CCC[C@@H]2C(=O)N[C@H](C)C(=O)N(Cc2ccccc2)CC(=O)N1C", "PAMPA (log10 cm/s)": "-6.05"}
{"smiles": "CC(C)C[C@@H]1C(=O)N2CCC[C@H]2C(=O)N(C)[C@H](CC(C)C)C(=O)N[C@@H](Cc2ccccc2)C(=O)N2CCC[C@H]2C(=O)N[C@@H](Cc2ccccc2)CC(=O)N(Cc2ccccc2)CC(=O)N1C", "PAMPA (log10 cm/s)": "-5.76"}
{"smiles": "CC(C)C[C@@H]1NC(=O)C[C@H](Cc2ccccc2)NC(=O)[C@H](Cc2ccccc2)NC(=O)CN(Cc2ccccc2)C(=O)[C@@H]2CCCN2C(=O)[C@H](CC(C)C)N(C)C1=O", "PAMPA (log10 cm/s)": "-5.39"}
{"smiles": "CC(C)C[C@H]1C(=O)N(C)[C@@H](CC(C)C)C(=O)N2CCC[C@H]2C(=O)N(Cc2ccccc2)CC(=O)N[C@@H](Cc2ccccc2)C(=O)N2CCC[C@H]2C(=O)N[C@@H](Cc2ccccc2)CC(=O)N1C", "PAMPA (log10 cm/s)": "-5.50"}
{"smiles": "CCCN1CC(=O)N(C)[C@H](CC(C)C)C(=O)N(Cc2ccccc2)CC(=O)N2CCC[C@@H]2C(=O)N(Cc2ccccc2)CC(=O)N[C@@H](Cc2ccccc2)C1=O", "PAMPA (log10 cm/s)": "-5.76"}
{"smiles": "CCCN1CC(=O)N[C@H](CC(C)C)C(=O)N[C@@H](Cc2ccccc2)CC(=O)N2CCC[C@@H]2C(=O)N(Cc2ccccc2)CC(=O)N[C@@H](Cc2ccccc2)C(=O)N2CCC[C@@H]2C1=O", "PAMPA (log10 cm/s)": "-6.58"}
{"smiles": "CC(C)C[C@H]1C(=O)N2CCC[C@@H]2C(=O)N(Cc2ccccc2)CC(=O)N[C@@H](Cc2ccccc2)C(=O)N2CCC[C@H]2C(=O)N(C)[C@H](C)C(=O)N(Cc2ccccc2)CC(=O)N1C", "PAMPA (log10 cm/s)": "-5.83"}
{"smiles": "CC(C)C[C@@H]1NC(=O)[C@H]2CCCN2C(=O)[C@H](CC(C)C)NC(=O)CN(Cc2ccccc2)C(=O)C[C@H](Cc2ccccc2)NC(=O)[C@H](Cc2ccccc2)NC1=O", "PAMPA (log10 cm/s)": "-5.51"}

Excerpt, the opening 3 entries:

| compound | PAMPA (log10 cm/s) |
|---|---|
| CC(C)C[C@H]1C(=O)N(C)[C@@H](CC(C)C)C(=O)N2CCC[C@@H]2C(=O)N(Cc2ccccc2)CC(=O)N[C@@H](Cc2ccccc2)C(=O)N2CCC[C@@H]2C(=O)N[C@@H](Cc2ccccc2)CC(=O)N1C | -5.14 |
| CC(C)C[C@H]1C(=O)N2CCC[C@@H]2C(=O)N(Cc2ccccc2)CC(=O)N[C@@H](Cc2ccccc2)C(=O)N2CCC[C@@H]2C(=O)N[C@@H](C)C(=O)N(Cc2ccccc2)CC(=O)N1C | -5.96 |
| CC(C)C[C@H]1NC(=O)[C@@H]2CCCN2C(=O)[C@@H](CC(C)C)NC(=O)CN(Cc2ccccc2)C(=O)C[C@H](Cc2ccccc2)NC(=O)[C@H](Cc2ccccc2)NC1=O | -5.94 |

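The data file gives no further conditions (lipid, pH, time, direction or concentration), and values from different papers need not be comparable. Other peptides of the study may be missing here. Entries at the database's floor value (log10 P of -10) are not listed.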